Consider one molecule from US10500226B2.

For this experiment, the system named is serum albumin. Briefly: Concanavalin A mouse model: serum albumin. Type of experiment: in vivo, C57BL/6 (B6) mice.

Turning to `C[C@@H]1C[C@H]2[C@@H]3CCC4=CC(=O)C=C[C@]4(C)[C@@]3(F)[C@@H](O)C[C@]2(C)[C@@]1(O)C(=O)CO` [Dexamethasone], the serum albumin levels by setting is: (2% solutions i.p., 14 hours after Con A administration) 37±17; (biotinylated alginate experiment, 48 hours after Con A administration) 33±4; (hyaluronan comparison, 48 hours after Con A administration) 28.5±4; (i.p., Table 3 experiment, 48 hours after Con A administration) 36.2±0.6; (oral administration, Table 7 experiment, 48 hours after Con A administration) 42.5±2; (oral administration, Table 8 experiment, 48 hours after Con A administration) 41±4. This molecule displayed a serum albumin levels (γ-irradiated alginate comparison, 48 hours after Con A administration) of 39±1.
